Source: ChEMBL document CHEMBL1149096 (J Med Chem, 2004)

By UniProt entry, the sequences of proteins in these tests, tags left out. Where a name states a change or a piece, a line headed by the entry shows the natural chain unless it says otherwise.
UniProt P41144: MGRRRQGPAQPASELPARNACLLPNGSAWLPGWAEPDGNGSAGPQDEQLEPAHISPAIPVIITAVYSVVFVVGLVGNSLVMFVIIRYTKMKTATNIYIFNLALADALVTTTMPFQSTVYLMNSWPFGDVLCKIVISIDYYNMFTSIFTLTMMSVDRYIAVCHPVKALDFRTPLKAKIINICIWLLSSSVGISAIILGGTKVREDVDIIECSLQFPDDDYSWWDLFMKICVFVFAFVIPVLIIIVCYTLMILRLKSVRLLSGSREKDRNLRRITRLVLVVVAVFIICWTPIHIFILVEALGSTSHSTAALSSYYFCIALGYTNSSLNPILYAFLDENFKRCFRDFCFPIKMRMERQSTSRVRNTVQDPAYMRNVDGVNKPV
UniProt P33535, whole entry, looked up: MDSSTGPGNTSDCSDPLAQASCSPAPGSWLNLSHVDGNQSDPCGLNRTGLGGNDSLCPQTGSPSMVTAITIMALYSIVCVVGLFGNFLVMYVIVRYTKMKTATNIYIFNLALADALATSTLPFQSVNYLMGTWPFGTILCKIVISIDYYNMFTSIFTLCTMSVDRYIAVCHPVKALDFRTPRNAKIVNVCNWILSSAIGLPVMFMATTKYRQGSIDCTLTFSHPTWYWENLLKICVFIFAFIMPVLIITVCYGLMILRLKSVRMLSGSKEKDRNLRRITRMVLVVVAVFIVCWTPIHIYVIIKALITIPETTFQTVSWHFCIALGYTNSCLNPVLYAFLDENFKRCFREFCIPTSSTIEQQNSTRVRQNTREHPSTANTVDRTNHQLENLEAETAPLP
UniProt P33533, whole entry, looked up: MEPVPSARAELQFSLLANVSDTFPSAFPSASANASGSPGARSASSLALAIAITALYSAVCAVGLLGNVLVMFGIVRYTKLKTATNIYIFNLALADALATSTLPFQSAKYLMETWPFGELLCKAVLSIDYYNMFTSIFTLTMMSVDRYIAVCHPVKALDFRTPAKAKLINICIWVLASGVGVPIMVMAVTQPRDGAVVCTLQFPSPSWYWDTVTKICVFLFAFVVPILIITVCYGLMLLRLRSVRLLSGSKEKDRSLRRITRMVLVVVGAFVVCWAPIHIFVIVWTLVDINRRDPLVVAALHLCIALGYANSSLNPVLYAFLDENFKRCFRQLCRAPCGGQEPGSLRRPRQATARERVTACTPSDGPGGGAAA

Tests used:
[1] = target: Kappa-type opioid receptor (Cavia porcellus, UniProt P41144)
[2] = target: Mu-type opioid receptor (Rattus norvegicus, UniProt P33535)
[3] = target: Delta-type opioid receptor (Rattus norvegicus, UniProt P33533); test: Binding affinity at opioid receptor delta 1 by displacement of [3H]DADLE in rat brain membrane

Question: How did the Ki [1] turn out when CN(C(=O)Cc1ccccc1)[C@H]1CC[C@@]2(CCCO2)C[C@@H]1N1CCCC1 was run?
Answer: 0.0048 µM

Question: And the Ki [2]?
Answer: 7.25 µM

Question: What about the Ki [3] of the same molecule?
Answer: > 5 µM
